Data from US5314998A, “Organic solvent-soluble metal-azo and metal-azomethine dyes” (Minnesota Mining and Manufacturing Company, priority 1992, dated 1994).

Assays:
[1] = Solubility in heptane (absorbance at maximum of saturated solution), chromium metal-azo complexes; format: physicochemical; details: room temperature (22° C.)
Protocol: The samples were prepared by shaking the dye in heptane for several hours, allowing the samples to sit overnight, and filtering through a plug of glass wool to remove particulates.

[2] = Solubility in heptane (absorbance at maximum), four-coordinate platinum metal-azo complexes; format: physicochemical; details: ambient temperature
Text: ^b result obtained by measuring in a 1 cm cell and dividing result by
^c estimate based on fitting the spectrum in the 510-550 nm region.

With “[[2,2-azobis[phenolato]](-2)-N,O,O](2,4-pentanedionato-O,O)(4-(5-nonyl)pyridine)chromium [Compound 29]” the “Absorbance at Maximum in Heptane/1 mm Cell” value (from here on “Absorbance at Maximum”) [1] was 2.69.
With “[[2,2-azobis[phenolato]](-2)-N,O,O](4-(5-nonyl)pyridine)platinum [Compound 19]” the “Absorbance at Maximum” value ([2]; estimate based on fitting the spectrum in the 510-550 nm region) was 8.17.
For “[[2,2-azobis[phenolato]](-2)-N,O,O](ethyl nicotinate)platinum [Compound 18]”, the “Absorbance at Maximum” value ([2]; measured in a 1 cm cell and result divided by 10) was 0.08.
